# Measurements as given in US11073509B2, “Assays and methods for determining the responsiveness of an individual subject to a therapeutic agent” (Celcuity Inc., priority 2013, dated 2021).
# Tests used:
# [1] = cited from earlier work
# [2] = tested on: Patient B1 cells (HER2 overexpressing breast cancer); experiment: CELx Pathway Shutdown test, impedance biosensor CReMS, EGF stimulation; assay type: cell-based, human
# Method: (§1) A CELx Pathway Shutdown test was performed using cells from two HER2 overexpressing breast cancer patients (Patient B1 and B4), two drugs (Lapatinib and Trastuzumab) that are indicated for HER2 positive breast cancers, and human epidermal growth factor (EGF). The physiologic change of the B1 and B4 cells during the test was measured with an impedance biosensor CReMS and the output from the CReMS is recorded in FIGS. 1A and 1B. The comparison of the CELx test results and the third party clinical reference is recorded in FIG. 1C. This example illustrates how the CELx test is able to predict the responsiveness that a patient will have to different targeted pathway drugs by using a CReMS to measure the physiological change in a patient's cells continuously over a period of several hours. This example also illustrates how the presence of a genetic biomarker, in this case an overexpressing HER2 gene, is not a sufficient condition to predict efficacy of the drug.
# (§2) CReM and microplate: A 4″×6″, 96-well impedance microplate was placed into a Roche Applied Science (Indianapolis, Ind.) xCELLigence SP impedance biosensor designed to maintain constant voltage while measuring simultaneously the impedance of every well. The change in impedance for a particular well is proportional to the number of cells and type of attachment the cells have with the impedance microplate. Changes in impedance indicate a response to perturbation of these small cell populations.
# (§3) Cells: Cells from Patient B1 and B4 were utilized. The cells were received at −80° C., thawed and cultured according to standard human epithelial cell handling procedure, typically in T75 culture flasks containing buffered media with serum at 37° C., 5% CO2. Prior to addition to the impedance microplate, the cells were removed from their growth container with versene, counted, and re-suspended in media without serum or other growth factors. […]
# [3] = tested on: Patient B4 cells (HER2 overexpressing breast cancer); experiment: as above; assay type: cell-based, human
# Method: as §1, §2, §3
substance,measurement,setting,value
trastuzumab: monoclonal antibody that interferes with the HER2/neu receptor,patient responsiveness recorded by clinical reference standard,[1]; Patient B1,unresponsive
same,patient responsiveness recorded by clinical reference standard,[1]; Patient B4,responsive
same,CELx test prediction of patient response,[2]; Patient B1,will not respond
same,change (decrease) of cell index of test cells after drug,"[2]; Patient B1 cells, pathway stimulated with receptor ligand (EGF), vs stimulated cells without drug",less than 5%
same,CELx test prediction of patient response,[3],would respond

# Read-outs that look alike come from different tables or passages of the source.
